Test results from PMC10781691, “Vertical pathway inhibition of receptor tyrosine kinases and BAD with synergistic efficacy in triple negative breast cancer” (NPJ Precision Oncology, 2024).

Legend:
MDA-MB-231 cells = assay: Cambridge cancer compound library screen in combination with NCK; type: cell-based, human; conditions: compound at IC25 with NCK 0.1, 1, 10 μM, 72 h, AlamarBlue
Procedure: Fig. 5 Tyrosine kinase inhibitors (TKIs) identified as the most synergistic compounds in combination with NCK to reduce MDA-MB-231 cell survival. a Heatmap plot depicts cell viability of MDA-MB-231 cells post-treatment as % Fraction affected (Fa) (Scale: Green to Red). Fa was calculated as 100 - cell viability (%). b Fold change (FC) of cell viability after treatments (compound X versus compound X + 10 μM NCK) and Fa of compound X alone were plotted. Compounds were marked in different colors, each representing the pathway targeted by the compound. Compounds with average CI < 1 when co-treated with NCK are shown. CI was calculated using the bliss independence method (CI= (EA + EB-EAEB)/EAB), where CI < 1 denotes synergy. c Top pathways and targets synergizing with NCK are plotted. d Cell viability of MDA-MB-231 cells after treatment with the highly ranked synergistic TKIs (at their respective IC25) with/without 10 μM NCK (from drug screening assay).
The Cambridge Cancer Compound Library (L2300) was purchased from Selleckchem (Houston, TX, USA) and the detailed information of compounds are listed in Supplementary Fig. 11A. […] After 72-hours of treatment, cell viability was determined with AlamarBlue reagent and fluorescence was measured using a Tecan microplate reader, as previously described. […]

MDA-MB-231 xenografts = assay: Orthotopic xenograft, combination study; type: in vivo; conditions: Balb/c-nude mice, day 22; NCK 20 mg/kg, OSI 50 mg/kg, CRI 50 mg/kg
Procedure: In vivo bioluminescent imaging was performed to determine the incidence and metastatic burden of luciferase-labeled 4T1 cells. Mice were injected i.p. with 10 mg/ml of D-luciferin (Gold Biotechnology, MO, USA) and imaged using a PerkinElmer IVIS Spectrum system. PDX were generated as previously described by transplanting fresh fragments orthotopically into 8-week-old female nonobese diabetic (NOD)/severe combined immunodeficient (SCID) mice (Beijing Vital River Laboratory Animal Technology Co., Beijing, China) (P1, passage 1)[40]. The P1 xenografts were then fragmented, digested into single-cell suspension and implanted into mammary fat pad (100 μL PBS containing growth factor reduced 50% Matrigel) of NOD/SCID mice. […] Animal body weight and xenograft size were measured daily using an electronic balance and a digital caliper, respectively. Xenograft volume (mm^3) was calculated by using the formula: 0.52 × length × [width]^2. Complete response (CR) was achieved if the average xenograft volume for the treatment group was unable to be determined for two or more consecutive measurements. […] IHC analysis of xenograft histology sections and quantitative polymerase chain reaction (qPCR) were performed as previously described. […]

Compound | synergy with NCK in compound library screen (CI, Bliss independence) (MDA-MB-231 cells) | Relative Kidney Weight (MDA-MB-231 xenografts)
C[C@@H](Oc1cc(-c2cnn(C3CCNCC3)c2)cnc1N)c1c(Cl)ccc(F)c1Cl [Crizotinib] | low CI (high synergy) | –
O=C(Nc1ccc(OC(F)(F)F)cc1)c1sccc1NCc1ccnc2ccccc12 [OSI-930] | – | 1.63±0.16%
